# Binding of CDR-mutated scFvs to a peptide of the spike HR2 region

The measurements come from Li et al. 2023 (doi:10.1038/s41467-023-39022-2) through the FLAb antibody collection.

Binding partner: SARS-CoV-2 spike HR2 peptide, sequence PDVDLGDISGINAS.

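Phage display of a naive human antibody library on the peptide gave the parent. This is the validation round: designs drawn from the data on random variants, tested in the same kind of assay. Group labels follow the data file (Ctrl: baseline library sampled from a position-specific scoring matrix, with some repeated check sequences; Rand: our label for a block that the file lists under HC and that is probably the random mutants of the ten best first-round binders; En: ensemble of fine-tuned language models; GP: Gaussian process model; GPLM: also part of the Gaussian process libraries; HC: hill climbing; Gen: genetic algorithm; Gibbs: Gibbs sampling; a sequence that several methods proposed may carry one label only). In AlphaSeq, yeast of one mating type display the scFv and yeast of the other type display the target. Binding brings cells together so that they mate, and sequencing counts the barcode pairs among the diploids. Scores were corrected for input abundance and mapped to Kd with protein pairs of known affinity run in the same pool. There are six technical replicates.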

Ab-14 is the parent antibody, in scFv form: VH, then the linker GGGGSGGGGSGGGGS, then VL. The light chain is unchanged in all variants.
VH: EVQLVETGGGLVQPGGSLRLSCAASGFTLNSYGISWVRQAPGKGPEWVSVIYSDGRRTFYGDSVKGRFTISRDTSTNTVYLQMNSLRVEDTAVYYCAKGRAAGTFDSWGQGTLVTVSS
VL: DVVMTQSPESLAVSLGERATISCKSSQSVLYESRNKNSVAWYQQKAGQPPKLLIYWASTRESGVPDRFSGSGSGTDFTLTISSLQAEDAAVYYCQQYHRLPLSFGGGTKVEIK

Each variant is given by its three heavy chain CDRs, as the data file delimits them; those of the parent are GFTLNSYGIS, VIYSDGRRTFYGDSVK, GRAAGTFDS. Numbers give log10(Kd / nM), so 0 is 1 nM and 3 is 1 µM. Smaller is tighter. The mean shown is taken over the replicates in which the pair was detected. An entry "nd" has no value in the source: the pair was not observed among the diploids in any replicate. This suggests poor binding but is not conclusive.

CDR-H1 | CDR-H2 | CDR-H3 | group | log10 Kd (nM), mean | detected | empty controls
GFDLNEYGIS | VIYADGRRTFYTDSVK | GTLAGTFDV | En_HC | -0.58 | 6/6 | 0/18
GFDLNSYGIS | VIYSDGQRTFYGDSVK | GRNAGTFDS | GP_Gen | 0.38 | 6/6 | 0/18
GFDLNEYGVS | VIYADGQRRAYAANFK | GVNIGGFDA | En_Gibbs | 0.63 | 6/6 | 0/18
GFTLNSYGIS | VIYADGRRTFYGDSVK | GKTAGTFDV | GP_Gibbs | -0.19 | 6/6 | 0/18
GFELNSYGIS | VIYADGRRTFYGDQVK | GKAAGTFDS | GP_Gen | -0.16 | 6/6 | 0/18
GFSLDEYGIS | VIYADGRRTFYQDSVK | GNVAGTFDV | En_HC | -0.60 | 6/6 | 0/18
GFSLNSYGIS | VIYSDGKRTFYSDSVK | GRTAGTFDS | GPLM_Gibbs | -0.34 | 6/6 | 0/18
GFDLNEYGIS | VIYADGVRTAYADKVK | GNNAGTFDV | En_Gen | 2.17 | 2/6 | 0/18
GFTLNRYGIS | VIYSDGRRTFYSDSVK | GTAAGTFDS | GP_HC | 2.30 | 3/6 | 0/18
GFDLDEYGIS | VIYADGRRTFYADSVK | GTNAGTFLD | En_HC | 0.08 | 6/6 | 1/18
GFTLNSYGIS | VIYSDGCRTFYGDSVK | GRAALVFDS | Ctrl | nd | 0/6 | 0/18
GFTLNSYGIS | VIYSDGRRTFYADSVK | GKEAGTFDT | GPLM_Gibbs | -0.03 | 6/6 | 2/18
RFTLNSYGIS | VIYSDGRRTFYIDSVK | GRAAGTFDS | GP_HC | nd | 0/6 | 0/18
GFTLRSYGIS | VIYSDGKRTFYGDSVK | GRAAGTFDS | Ctrl | 1.46 | 1/6 | 0/18
GFTLDEYGIS | VIYADGMRTQYIDQVK | GLLVNTNMT | En_Gibbs | 0.25 | 6/6 | 0/18
GFDLNEYGIS | VIYADGRRTFYADSVK | GNIAGTFDQ | En_HC | -0.65 | 6/6 | 0/18
GFTLNSYGIS | VIYSDGKRTFYSDSVK | GQAAGTFDS | GPLM_Gen | 1.15 | 6/6 | 0/18
GKGLDEYGVS | VIYADGKRHQYAEDVK | GGIAGQFDV | En_Gibbs | nd | 0/6 | 1/18
GFDLEEFGIS | VIYADGMRTYASDAVK | GTFSGLVSV | En_Gibbs | 1.20 | 1/6 | 1/18
GFTLNDYGIS | VIYSDGRRTAYGDSVK | GREAGTFSS | Ctrl | 0.41 | 6/6 | 0/18
MFDLNSYGIS | VIYSDGRRTFYIDSVK | GQEAGTFDS | GP_Gibbs | 1.32 | 5/6 | 0/18
GFDLNEYGIS | VIYADGRRTFYSDNVK | GNVGGTFDI | En_HC | -0.11 | 6/6 | 1/18
GFDLNSYGIS | VIYSDGRRTFYADSVK | GKAAGTFDC | GP_Gen | 2.04 | 4/6 | 2/18
GFNLDEYGIS | VIYADGMRTAYSDSVK | GEVAGTFDV | En_Gen | -0.52 | 6/6 | 0/18
GFGLGEYGIS | VIYADGMRAAYVTSVK | GYEAGTFFT | En_Gibbs | nd | 0/6 | 0/18
GFTLNSYGIS | VIYSDGRRTFYQDSVK | GEAAGTFDS | GPLM_Gen | 1.69 | 5/6 | 0/18
GFTLNSYGIS | VIYADGKRTFYGDSVK | GQAAGTFDL | GPLM_Gibbs | 0.11 | 6/6 | 0/18
GFDLREYGIS | VIYADGRRVVYNDKVK | GELTGTFDQ | En_Gibbs | nd | 0/6 | 0/18
GFTLNDYGIS | VIYSDGRRTFYDDSVK | GRAAGTFVS | GPLM_HC | nd | 0/6 | 0/18
GKDIEEYGIS | VIYADGVRAAYADSVK | GENMDIMTD | En_Gibbs | nd | 0/6 | 1/18
GFTLNSYGIS | VIYSDGRRTFYADSVK | GHAAGTFDT | GPLM_Gibbs | 0.37 | 6/6 | 0/18
GFTLNSYGIS | VIYSDGRRTFYEDSVK | GRQAGTFDS | Ctrl | 1.36 | 4/6 | 2/18
WFSLNSYGIS | VIYSDGRRTFYADSVK | GRTAGTFDS | GPLM_Gen | 1.29 | 6/6 | 1/18
GFSLNDYGIS | VIYSDGQRTFYSDSVK | GRAAGTFDS | GP_HC | 0.26 | 3/6 | 0/18
GFDLEEYGIS | VIYADGQRFAYAQEFK | GEAAGAFDL | En_Gibbs | 1.16 | 3/6 | 0/18
GFDLNEYGIS | VIYADGRRKYYADSVK | GNTAGTFDV | En_HC | -0.11 | 6/6 | 0/18
GFHLDEFGIS | VIYADGLRMHYANSVK | GEMAGTFTT | En_Gibbs | 1.39 | 2/6 | 0/18
GFTLNSYGIS | VIYFDGRRTFYHDSVK | GRAIGTFDS | Ctrl | nd | 0/6 | 0/18
DFTLNDYGIS | VIYSDGRRTFYGDSVK | GRARLTFIT | Rand | nd | 0/6 | 0/18
GFTLNSYGIS | VIYSDGRRTFYIDAVK | GREAGTFDS | Ctrl | nd | 0/6 | 0/18
GFHLNSYGIS | VIYSDGRRTFYSDSVK | GQAAGTFDS | GPLM_Gen | 0.82 | 5/6 | 0/18
GFDLNEYGIS | VIYADGRRTYYADSVK | GNTAGTFDV | En_Gen | 0.09 | 6/6 | 1/18
GFDLNEYGIS | VIYADGMRTAYADNVK | GTVAGTFDQ | En_Gen | -0.54 | 6/6 | 0/18
GFTLNSYGIS | VIYSDGRRTFYSDSVK | GRAAGTFDT | GPLM_HC | 0.58 | 6/6 | 0/18
GFSLNDYGIS | VIYSDGRRTFYGDSVK | GRAAGTFDH | GP_HC | 1.72 | 6/6 | 0/18
GFTLNDYGIS | VIYSDGRRTFYGDEVK | GSAAGTFDS | Ctrl | 1.15 | 5/6 | 0/18
GFTLNEYGIS | VIYSDGRRTFYPDSVK | GRFAGTFDS | Rand | 1.17 | 6/6 | 0/18
GFDLNSYGIS | VIYSDGRRTFYGDAVK | GRTAGTFDM | GP_Gibbs | 0.86 | 5/6 | 0/18
SFDLNSYGIS | VIYSDGRRTFYADSVK | GKTAGTFDS | GP_Gen | nd | 0/6 | 0/18
GFTLNDYGIS | VIYSDGRRTFYEDSVD | GGAAGTFKK | Ctrl | nd | 0/6 | 0/18
GFDLNEYGIS | VIYADGKRTSYADSVK | GNVAGTFDI | En_Gen | 0.00 | 6/6 | 0/18
GFDLNEYGIS | VIYADGMRTAYTDSVK | GSNAGTFDM | En_Gen | 0.09 | 6/6 | 0/18
GFTLESYGIS | VIYADGRRTFYGDKVK | GRAAGTFKS | GP_HC | 2.11 | 1/6 | 0/18
GFTLNSYGIS | VIYSDGRRTFMGDSVK | NRAAGTFDS | Ctrl | nd | 0/6 | 0/18
GFALNEYGIS | VIYSDGRRTFYGDSVK | GRVAGTFDT | GP_Gibbs | 0.11 | 6/6 | 0/18
GFDLNEYGIS | VIYADGSRTAYADDVK | GEVAGTFDQ | En_Gen | -0.30 | 6/6 | 0/18
GFDLNSYGIS | VIYSDGRRTFYIDSVK | GNAAGTFDQ | GP_Gibbs | 0.46 | 6/6 | 2/18
GFTLNEYGIS | VIYSDGRRTFYTDSVK | GRVAGTFDV | GP_HC | -0.22 | 6/6 | 0/18

The first 5 variants above that were never detected:

CDR-H1 | CDR-H2 | CDR-H3 | group | log10 Kd (nM), mean | detected | empty controls
GFTLNSYGIS | VIYSDGCRTFYGDSVK | GRAALVFDS | Ctrl | nd | 0/6 | 0/18
RFTLNSYGIS | VIYSDGRRTFYIDSVK | GRAAGTFDS | GP_HC | nd | 0/6 | 0/18
GKGLDEYGVS | VIYADGKRHQYAEDVK | GGIAGQFDV | En_Gibbs | nd | 0/6 | 1/18
GFGLGEYGIS | VIYADGMRAAYVTSVK | GYEAGTFFT | En_Gibbs | nd | 0/6 | 0/18
GFDLREYGIS | VIYADGRRVVYNDKVK | GELTGTFDQ | En_Gibbs | nd | 0/6 | 0/18

Three control strains display no target. For all heavy chain designs, 1% of the pairings with them gave a signal, with a median of 2.08 and one signal in twenty below 0.84, so weak values seen in few replicates may be background. The control count says in how many pairings with the empty strains this scFv gave a signal. Of ten entries with the parent sequence, four were seen in most replicates (averages 0.34 to 2.37), three in one and three in none, so single entries are noisy. In the paper, a design with two or fewer of six values counts as a poor binder. A sequence measured in both rounds can read differently, since the two assays cover different ranges.